Values quoted from earlier work as cited in article PMC11181486, “Nonsymmetrically Substituted 1,1′-Biphenyl-Based Small Molecule Inhibitors of the PD-1/PD-L1 Interaction” (ACS Medicinal Chemistry Letters, 2024).
Where two headings read alike, the source gives them in different places.

Key:
[1] = biological target: PD-1/PD-L1 (Homo sapiens, UniProt Q9NZQ7); conditions: cited from earlier work
[2] = tested on: PD-L1; conditions: cited from earlier work

Row | Structure (SMILES) | EC50 ([1]; Figure S1, ref Muszak et al.) | EC50 ([1]; Figure S2B, source not printed beside the compound) | IC50 [2]
1 | COc1cc(-c2cccc(-c3ccc4c(c3)OCCO4)c2Cl)ccc1CNC(CO)(CO)CO | 1020 nM | – | –
2 | COc1nc(-c2cccc(-c3cccc(-n4cc5cc(CN6CC[C@@H](C(=O)O)C6)cnc5n4)c3Cl)c2Cl)cc(C)c1CNC[C@@H]1CCC(=O)N1 | – | < 100 nM | < 10 nM
